# Molecular target: T1, Mitogen-activated protein kinase kinase kinase 7/TGF-beta-activated kinase 1 and MAP3K7-binding protein 1 (Homo sapiens, UniProt O43318+Q15750)
# T1 sequence (O43318 whole entry): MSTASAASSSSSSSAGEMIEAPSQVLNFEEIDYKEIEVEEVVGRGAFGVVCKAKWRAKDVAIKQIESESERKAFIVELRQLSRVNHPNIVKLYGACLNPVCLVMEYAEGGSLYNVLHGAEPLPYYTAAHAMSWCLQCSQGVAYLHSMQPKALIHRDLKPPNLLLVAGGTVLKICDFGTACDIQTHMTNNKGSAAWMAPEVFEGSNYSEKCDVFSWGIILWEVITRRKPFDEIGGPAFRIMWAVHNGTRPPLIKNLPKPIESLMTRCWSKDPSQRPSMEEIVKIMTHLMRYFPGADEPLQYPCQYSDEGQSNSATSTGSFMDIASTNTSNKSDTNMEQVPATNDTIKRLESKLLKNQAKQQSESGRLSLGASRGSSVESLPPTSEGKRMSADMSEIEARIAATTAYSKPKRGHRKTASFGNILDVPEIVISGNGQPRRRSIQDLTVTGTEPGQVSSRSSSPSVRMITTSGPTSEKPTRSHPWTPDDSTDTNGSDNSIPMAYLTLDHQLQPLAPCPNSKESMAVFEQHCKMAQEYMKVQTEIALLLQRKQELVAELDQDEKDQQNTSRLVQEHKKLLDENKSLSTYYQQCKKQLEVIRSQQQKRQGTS
# T1 sequence (Q15750 whole entry): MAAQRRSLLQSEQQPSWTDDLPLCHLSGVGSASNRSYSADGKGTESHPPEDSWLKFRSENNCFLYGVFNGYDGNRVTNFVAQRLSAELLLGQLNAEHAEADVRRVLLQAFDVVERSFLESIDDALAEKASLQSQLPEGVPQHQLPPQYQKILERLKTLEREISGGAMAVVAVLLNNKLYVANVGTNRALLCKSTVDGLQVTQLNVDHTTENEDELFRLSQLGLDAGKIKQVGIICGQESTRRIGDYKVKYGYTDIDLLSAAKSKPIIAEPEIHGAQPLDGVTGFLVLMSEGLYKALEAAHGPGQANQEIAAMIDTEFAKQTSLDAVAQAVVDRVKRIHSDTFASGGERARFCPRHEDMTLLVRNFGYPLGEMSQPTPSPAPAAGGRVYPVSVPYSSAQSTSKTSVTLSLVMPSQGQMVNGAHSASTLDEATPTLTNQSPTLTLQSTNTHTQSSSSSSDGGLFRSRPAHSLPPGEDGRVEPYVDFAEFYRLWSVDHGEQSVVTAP
# Test: Inhibition of full length TAK1/TAB1 (unknown origin) using biotin-MKK6 as substrate by AlphaScreen assay
smiles,measurement,value
COc1cc(O)c2c(c1)/C=C/C[C@H](O)[C@H](O)C(=O)/C=C\C[C@H](C)OC2=O,IC50,9 nM

# Reference: BindingDB's records for doi:10.1016/j.ejmech.2018.12.025 (Chung-Ang University, 2019)
